In publication PMC7723054:
The list shows a part of the results.

What was measured:
Test in all cases: FOREST: bead pull-down of RNA structure library v1, barcode microarray; U1A/LIN28A: 20 mM HEPES pH 7.5, 80 mM KCl, 20 mM NaCl, 10% glycerol, 2 mM DTT, 0.1 ug/uL BSA, 4 C; BG4/CIRBP/DHX36: 10 mM Tris-HCl pH 7.5, 100 mM KCl (or LiCl),; high values mean tight binding
[1] = target: T1, LIN28A (human?, UniProt Q9H9Z2 1-209)
T1 sequence: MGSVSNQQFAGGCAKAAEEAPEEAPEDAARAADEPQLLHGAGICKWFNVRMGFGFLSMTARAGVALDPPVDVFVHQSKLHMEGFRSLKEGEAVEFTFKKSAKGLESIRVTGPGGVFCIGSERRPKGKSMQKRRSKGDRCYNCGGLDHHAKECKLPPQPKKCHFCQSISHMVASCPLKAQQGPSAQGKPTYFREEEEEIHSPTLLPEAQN

[2] = target: T2, CIRBP (Homo sapiens, UniProt Q14011 1-172)
T2 sequence: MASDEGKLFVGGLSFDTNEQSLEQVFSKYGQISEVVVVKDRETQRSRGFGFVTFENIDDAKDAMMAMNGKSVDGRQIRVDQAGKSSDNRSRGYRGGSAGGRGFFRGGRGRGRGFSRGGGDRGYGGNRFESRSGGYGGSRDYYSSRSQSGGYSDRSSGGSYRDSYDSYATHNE

[3] = target: T3, DHX36 (Homo sapiens, UniProt Q9H2U1 1-1008)
T3 sequence: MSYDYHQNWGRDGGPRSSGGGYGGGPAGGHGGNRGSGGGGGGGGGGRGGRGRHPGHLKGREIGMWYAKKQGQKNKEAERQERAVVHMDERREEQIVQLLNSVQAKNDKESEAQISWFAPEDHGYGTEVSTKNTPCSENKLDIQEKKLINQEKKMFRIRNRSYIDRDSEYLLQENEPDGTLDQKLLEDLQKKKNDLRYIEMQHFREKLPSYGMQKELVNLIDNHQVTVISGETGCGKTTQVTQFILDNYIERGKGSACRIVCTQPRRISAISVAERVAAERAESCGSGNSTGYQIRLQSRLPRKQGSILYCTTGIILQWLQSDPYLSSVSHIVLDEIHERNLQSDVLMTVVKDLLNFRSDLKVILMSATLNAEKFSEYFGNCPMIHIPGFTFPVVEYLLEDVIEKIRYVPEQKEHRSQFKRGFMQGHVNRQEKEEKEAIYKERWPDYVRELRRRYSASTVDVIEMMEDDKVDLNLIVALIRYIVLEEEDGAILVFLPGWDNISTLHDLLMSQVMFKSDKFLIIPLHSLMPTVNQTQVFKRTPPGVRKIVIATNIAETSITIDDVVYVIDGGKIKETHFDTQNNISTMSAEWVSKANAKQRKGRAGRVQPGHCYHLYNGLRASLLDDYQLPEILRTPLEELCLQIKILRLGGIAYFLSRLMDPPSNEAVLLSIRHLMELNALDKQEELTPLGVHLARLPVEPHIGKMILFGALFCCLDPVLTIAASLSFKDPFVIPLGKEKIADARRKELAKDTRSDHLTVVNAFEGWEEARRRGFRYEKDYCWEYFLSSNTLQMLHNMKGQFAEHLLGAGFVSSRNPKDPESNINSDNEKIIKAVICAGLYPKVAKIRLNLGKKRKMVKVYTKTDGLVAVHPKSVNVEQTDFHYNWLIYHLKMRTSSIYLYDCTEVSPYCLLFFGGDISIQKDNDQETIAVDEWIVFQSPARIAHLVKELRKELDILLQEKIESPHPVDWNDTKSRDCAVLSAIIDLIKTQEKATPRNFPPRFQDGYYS

B1: hsa-mir-3199-1 (structured_RNA)
RNA: GGGAAGCUAAUCGAACCGUGCAUUCAGUGGUGUACGAAGUUUCAGCAGUUUCUGGAAGUUCUGACAUUCCAGAAACUGCUGAAGCUUCGUGCAC
binding signal [1]: -1.28 z-score | binding signal [2]: -0.427 z-score | binding signal [3]: -0.167 z-score

B2: hsa-mir-4475 (structured_RNA)
RNA: GGGAAUGAAAAUUAAGGACGAGCCAACGGGUGUACGAAGUUUCAGCAAUGACUCAUAGUCAAGCUGAAGCUUCGUGCAC
binding signal [1]: -1.28 z-score | binding signal [2]: -0.0219 z-score | binding signal [3]: -0.716 z-score

B3: hsa-mir-4715 (structured_RNA)
RNA: GGGAAAUGGCGUCCCCAGUGCUAACACAGGUGUACGAAGUUUCAGCGUGGCUAAUCAGCUGAUGGUGCCACGCUGAAGCUUCGUGCAC
binding signal [1]: -1.29 z-score | binding signal [2]: -0.115 z-score | binding signal [3]: -0.572 z-score

B4: hsa-mir-4474 (structured_RNA)
RNA: GGGAAAGCACGCUCCGUCCACGAGUUACGGUGUACGAAGUUUCAGCCACAAAUAUGGCUCUUUGUGGCUGAAGCUUCGUGCAC
binding signal [1]: -1.29 z-score | binding signal [2]: -0.623 z-score | binding signal [3]: -0.435 z-score

B5: hsa-mir-8084 (structured_RNA)
RNA: GGGAGGACACCUGAUGACGCCACUCUACGGUGUACGAAGUUUCAGCAGUAUGGAUUAAAUUUAUAUUUUCCUCGAUACUGCUGAAGCUUCGUGCAC
binding signal [1]: -1.3 z-score | binding signal [2]: -0.565 z-score | binding signal [3]: 0.419 z-score

B6: hsa-mir-452 (structured_RNA)
RNA: GGGAACGAAACCGCGUGCUCUCAUGGAUGGUGUACGAAGUUUCAGCGGAAACUGAGACUUUGUAACUAUGUCUCAGUCUCAGCUGAAGCUUCGUGCAC
binding signal [1]: -1.3 z-score | binding signal [2]: 0.428 z-score | binding signal [3]: -0.659 z-score

B7: hsa-mir-6502 (structured_RNA)
RNA: GGGAUGUAGUGUACCCCUACACAGAGGCGGUGUACGAAGUUUCAGCUUGACCAAUCAUCUUAUUGACUAGAGCUGAAGCUUCGUGCAC
binding signal [1]: -1.3 z-score | binding signal [2]: -0.497 z-score | binding signal [3]: -1.75 z-score

B8: hsa-mir-4266 (structured_RNA)
RNA: GGGAAGCCACUAACGUUACUUCAAGGAUGGUGUACGAAGUUUCAGCCUACUCAAGGCUAGGCUGAAGCUUCGUGCAC
binding signal [1]: -1.31 z-score | binding signal [2]: -0.334 z-score | binding signal [3]: -0.198 z-score

B9: hsa-mir-4298 (structured_RNA)
RNA: GGGAACCCAAAGUUGGGCAGAGCAAUACGGUGUACGAAGUUUCAGCGCAGCCUUGCGCUGAAGCUUCGUGCAC
binding signal [1]: -1.31 z-score | binding signal [2]: -0.0898 z-score | binding signal [3]: -0.523 z-score

B10: hsa-mir-636 (structured_RNA)
RNA: GGGAACUGACGCUAACACUGGAUGAAAUGGUGUACGAAGUUUCAGCCGCUGCCUGGAAUUAACCCCGCUGUGGCUGAAGCUUCGUGCAC
binding signal [1]: -1.32 z-score | binding signal [2]: -0.744 z-score | binding signal [3]: -1.14 z-score

B11: hsa-mir-500b (structured_RNA)
RNA: GGGAAACGGCAACAGAUACCUAGUCAAAGGUGUACGAAGUUUCAGCGGGUGAGAGUGCUUUCUGAAUGCAGUGCACCCGCUGAAGCUUCGUGCAC
binding signal [1]: -1.32 z-score | binding signal [2]: -0.791 z-score | binding signal [3]: 0.0802 z-score

B12: hsa-mir-4798 (structured_RNA)
RNA: GGGAAUAGACCGUAGGCGACUUGCACCCGGUGUACGAAGUUUCAGCAAUUGGCUUUUACAAAAGACCAACUGCUGAAGCUUCGUGCAC
binding signal [1]: -1.33 z-score | binding signal [2]: 0.0288 z-score | binding signal [3]: -0.553 z-score

B13: hsa-mir-320c-2 (structured_RNA)
RNA: GGGAAGUCUGCGGAAGUCAGUUUCGAUCGGUGUACGAAGUUUCAGCUCUUCCCAGAAUUGGGAAAAGCUGAAGCUUCGUGCAC
binding signal [1]: -1.34 z-score | binding signal [2]: -0.0315 z-score | binding signal [3]: -1.17 z-score

B14: hsa-mir-5701-1_5701-2_5701-3 (structured_RNA)
RNA: GGGAGGCAGCUUCCGAAAACGCAAUAUUGGUGUACGAAGUUUCAGCGAUUGGUUAGCCUAAGACUUGUUCUGAUCCAAUCGCUGAAGCUUCGUGCAC
binding signal [1]: -1.34 z-score | binding signal [2]: -0.806 z-score | binding signal [3]: -1.29 z-score

B15: hsa-mir-21 (structured_RNA)
RNA: GGGAACAGGGUUGGACUAAGUGUACCUCGGUGUACGAAGUUUCAGCGUUGACUGUUGAAUCUCAUGGCAACGCUGAAGCUUCGUGCAC
binding signal [1]: -1.35 z-score | binding signal [2]: -0.623 z-score | binding signal [3]: -1.04 z-score

B16: hsa-mir-202 (structured_RNA)
RNA: GGGAGCUUUACUAUUUCGGGACGGAGUGGGUGUACGAAGUUUCAGCUUCUUUGAGGAUCUGGCCUAAAGAGGCUGAAGCUUCGUGCAC
binding signal [1]: -1.35 z-score | binding signal [2]: -0.39 z-score | binding signal [3]: -0.984 z-score

B17: PARIS_ID13 (structured_RNA)
RNA: GGGACUCGGCGCAGAUAAAAGCUAGCCUGGUGUACGAAGUUUCAGCGCAAUGGAAUGUAAUGAUCAUCACUUUUCAUUAUGCGCUGAAGCUUCGUGCAC
binding signal [1]: -1.35 z-score | binding signal [2]: -0.117 z-score | binding signal [3]: 0.174 z-score

B18: hsa-mir-548f-1 (structured_RNA)
RNA: GGGAACGAAACAACUCAGGCAGCCCUUCGGUGUACGAAGUUUCAGCUUUUGACAUUACUUUCAAAGACAAAAGCUGAAGCUUCGUGCAC
binding signal [1]: -1.36 z-score | binding signal [2]: -1.32 z-score | binding signal [3]: -0.971 z-score

B19: hsa-mir-362 (structured_RNA)
RNA: GGGAAUGCGCAAAGGUUCAUAAGUCACCGGUGUACGAAGUUUCAGCUGAGUGCUAUUUCAGUGCAACAGCUGAAGCUUCGUGCAC
binding signal [1]: -1.36 z-score | binding signal [2]: -1.1 z-score | binding signal [3]: -0.307 z-score

B20: hsa-mir-519d (structured_RNA)
RNA: GGGCAAGGGCAGCUUACGGGCUAGAGUCGGUGUACGAAGUUUCAGCUCUGUUUGUUUUCUCUUAAACAGCUGAAGCUUCGUGCAC
binding signal [1]: -1.36 z-score | binding signal [2]: -0.712 z-score | binding signal [3]: -0.438 z-score

B21: hsa-mir-4282 (structured_RNA)
RNA: GGGAAAGGAUGCGGCAGUCCACUCCUUAGGUGUACGAAGUUUCAGCUUUAGUAUGCCACAUUUCUAAAGCUGAAGCUUCGUGCAC
binding signal [1]: -1.36 z-score | binding signal [2]: -0.832 z-score | binding signal [3]: -0.826 z-score

B22: hsa-mir-567 (structured_RNA)
RNA: GGGAGAAGCGUUGAUGAGCAUCUAACGCGGUGUACGAAGUUUCAGCCAUUCUUUGCUAGCUGAAGCUUCGUGCAC
binding signal [1]: -1.36 z-score | binding signal [2]: -0.767 z-score | binding signal [3]: -1.14 z-score

B23: hsa-mir-320d-1 (structured_RNA)
RNA: GGGAAUGCAGGUUUCAGCCGCGAUCAUAGGUGUACGAAGUUUCAGCUCUUCCCAAAGUUGAGAAAAGCUGAAGCUUCGUGCAC
binding signal [1]: -1.36 z-score | binding signal [2]: -0.532 z-score | binding signal [3]: -0.574 z-score

B24: hsa-mir-548m (structured_RNA)
RNA: GGGAAUCACCGGUGUUGAUUGCACAUCCGGUGUACGAAGUUUCAGCUUUGUCAUUAAAGUAAUGCAAAGCUGAAGCUUCGUGCAC
binding signal [1]: -1.36 z-score | binding signal [2]: -1.3 z-score | binding signal [3]: 0.765 z-score

B25: hsa-mir-1279 (structured_RNA)
RNA: GGGAAGACCUAUACCUUAGCUGCCAAGUGGUGUACGAAGUUUCAGCUUCUAAUGCCAAGAAGCUGAAGCUUCGUGCAC
binding signal [1]: -1.37 z-score | binding signal [2]: 0.159 z-score | binding signal [3]: -0.0152 z-score

B26: hsa-mir-451b (structured_RNA)
RNA: GGGACCCCUGGUGUUACAAUAGCAGAUCGGUGUACGAAGUUUCAGCCAUUACUAAACUCAGUAAUGGCUGAAGCUUCGUGCAC
binding signal [1]: -1.37 z-score | binding signal [2]: -0.167 z-score | binding signal [3]: -0.733 z-score
